Series [1] deals with k-ras mutated cancer cell lines (MDA-MB-231, HCT116, SW837 and DLD-1). Put plainly: Cytotoxicity in k-ras mutated cancer cell lines. As to conditions: 72 hours; for cytotoxic activity in k-ras mutated cancer cell lines: 0 to 20 μM.
For series [2], the system named is k-ras wild-type (WT) cancer cell lines (H322, BT-20 and BxPC-3). Put plainly: Cytotoxicity of TKI or EB-lytic in k-ras wild-type cancer cell lines. As to conditions: 72 hours; for cytotoxic activity in k-ras WT cancer cell lines: H322, BT-20 and BxPC-3, 0 to 20 μM.

Turning to `COc1cc2ncnc(Nc3cccc(Br)c3)c2cc1OC` [PD153035], the “cytotoxic activity in k-ras mutated cancer cell lines” value in series [1] was “resistant”. Besides, the “cytotoxic activity in k-ras WT cancer cell lines” value in series [2] is reported as “insufficient”.
`C#Cc1cccc(Nc2ncnc3cc(OCCOC)c(OCCOC)cc23)c1` [erlotinib]: the “cytotoxic activity in k-ras mutated cancer cell lines” value in series [1] was “resistant”. Besides, the “sensitivity of k-ras mutated cancer cell lines” value in series [1] (erlotinib 0 to 80 μM, anti-EGFR antibody 0 to 20 μg/ml) was “resistant”. Also, the “cytotoxic activity in k-ras WT cancer cell lines” value in series [2] is on record as “insufficient”. Also, the “sensitivity of k-ras WT cancer cell lines” value in series [2] (H322 and BT-20, erlotinib 0 to 80 μM, anti-EGFR antibody 0 to 20 μg/ml) was “sensitive”.
Regarding `COc1cc2ncnc(Nc3ccc(F)c(Cl)c3)c2cc1OCCCN1CCOCC1` [gefitinib], the “cytotoxic activity in k-ras mutated cancer cell lines” value in series [1] is recorded as “resistant”. For the same molecule, the “cytotoxic activity in k-ras WT cancer cell lines” value in series [2] is “insufficient”.
